{
  "source": "ChEMBL document CHEMBL5634187",
  "about": "“Identification of Selective Imidazopyridine CSF1R Inhibitors” (ACS Med Chem Lett, 2024)",
  "system": "Mus musculus",
  "assay": "Antiinflammatory activity in LPS-induced C3H/HeN mouse model assessed as reduction in TNF-alpha level in plasma at 25 to 100 mg/kg, po preadministered with compound for 45 mins followed by recombinant mouse M-CSF1 addition prior to LPS administration at […] and measured after 1.5 hrs",
  "type": "functional, organism-based",
  "details": "dose lower […], dose upper 100.0 mg/kg, time 5.0 hrs",
  "note": "Active and inactive are the calls of the source. The rule behind the calls is not given here.",
  "data": [
    {"compound": "COc1ccc(COc2ccc(Cn3cnc4cc(C#CC5CCNC5)cnc43)cc2OC)cn1", "note": "(stereo unspecified)", "values": [
      {"measurement": "Activity", "result": "Active"}
    ]}
  ]
}
